Source: ChEMBL document CHEMBL5042528, “Optimization of 2-Amino-4,6-diarylpyrimidine-5-carbonitriles as Potent and Selective A1 Antagonists” (J Med Chem, 2022)

By UniProt entry, the sequences of proteins in these tests, tags left out.
UniProt P30542, whole entry: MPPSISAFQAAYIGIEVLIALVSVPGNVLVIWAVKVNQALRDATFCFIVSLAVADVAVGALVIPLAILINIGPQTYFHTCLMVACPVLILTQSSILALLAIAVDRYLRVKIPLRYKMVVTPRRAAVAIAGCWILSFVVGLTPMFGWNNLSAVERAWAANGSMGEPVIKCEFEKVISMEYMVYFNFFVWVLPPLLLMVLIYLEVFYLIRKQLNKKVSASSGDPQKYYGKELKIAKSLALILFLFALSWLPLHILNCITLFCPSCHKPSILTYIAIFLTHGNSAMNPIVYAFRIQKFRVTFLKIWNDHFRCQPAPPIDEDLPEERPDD

Biological target: Adenosine receptor A1 (Homo sapiens, UniProt P30542)
Assay: Displacement of [3H]DPCPX from A1 adenosine receptor (unknown origin) expressed in CHO cell membrane incubated for 60 mins at room temperature by NXT microplate scintillation counter analysis
Type: cell membranes

Ki: 1.2 nM
Structure (SMILES): N#Cc1c(-c2ccccc2)nc(NC(=O)C2CCCC2)nc1-c1ccc2c(c1)OCO2
